Source: ChEMBL document CHEMBL6074676, “Optimization and Biological Evaluation of Novel 1H-Pyrrolo[2,3-c]pyridin Derivatives as Potent and Reversible Lysine Specific Demethylase 1 Inhibitors for the Treatment of Acute Myelogenous Leukemia” (J Med Chem, 2024)
Activity calls are given as the source filed them. The calls are words filed in the database; no cut-off is given here.

Columns and labels:
MV4-11 [1] = experiment: Induction of morphological changes in human MV4-11 cells assessed as appearance of segmented nuclei at 30 nM measured after 240 hrs by wright-giemsa staining based analysis; type: functional, cell-based
MV4-11 [2] = experiment: Induction of morphological changes in human MV4-11 cells assessed as reduction in nuclear to cytoplasmic ratio at 30 nM measured after 240 hrs by wright-giemsa staining based analysis; type: functional, cell-based

Question: Which Activity (MV4-11 [1]) does the source give for COc1ccc(-c2c(-c3ccc(C#N)c(F)c3)nc(N3CCC(N)CC3)n(C)c2=O)cc1F [PULRODEMSTAT] here?
Answer: Active

Question: What about the Activity (MV4-11 [2]) of the same compound?
Answer: Active
